Values quoted from earlier work in patent publication US20110251126A1, “INTESTINAL TREATMENT” (priority 2008, published 2011).

Amino acid sequences for entries named in this document (tags omitted). A change or cut given only in a name is not applied to a line headed by its entry.
UniProt P50391: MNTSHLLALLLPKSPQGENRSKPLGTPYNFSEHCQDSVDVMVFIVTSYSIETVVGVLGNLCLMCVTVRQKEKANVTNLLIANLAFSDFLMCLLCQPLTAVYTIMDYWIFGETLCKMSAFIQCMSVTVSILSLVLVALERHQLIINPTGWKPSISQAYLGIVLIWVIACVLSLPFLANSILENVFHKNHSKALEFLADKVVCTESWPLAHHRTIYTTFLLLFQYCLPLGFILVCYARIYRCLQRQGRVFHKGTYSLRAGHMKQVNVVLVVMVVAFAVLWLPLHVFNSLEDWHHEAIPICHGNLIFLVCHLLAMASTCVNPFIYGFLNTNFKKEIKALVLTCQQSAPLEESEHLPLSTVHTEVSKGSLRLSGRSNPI

Molecular target: Y4 receptors (Homo sapiens, UniProt P50391)
Conditions: Michel et al. 1998; cited from earlier work

In the case of Neuropeptide Y [NPY], the “affinity for Y4 receptors” value is given as “nanomolar”.
